In general, solubility (kinetic) refers to the concentration staying in solution when a stock, usually in DMSO, is diluted into the medium.

The conditions of this data set: buffer; pH 7.4; 6.0 h; 150.0 µM.

Molecules are shown by their SMILES. ≈ marks a conversion by molar mass, not a printed value.

The molecule `Cc1cc(C)nc(NC(=S)N2CCN(Cc3ccc(C(F)(F)F)cc3)CC2)c1` came in with a kinetic solubility of 10.4 µg/mL (≈ 25.4 µM). As to `Cc1cn(-c2cc(NC(=O)c3ccc(C)c(Nc4nccc(-c5cccnc5)n4)c3)cc(C(F)(F)F)c2)cn1`, the kinetic solubility was < 1 µg/mL.

The values above are taken from PubChem BioAssay AID1645848.
